The test system of one experiment is HER1:HER3. The experiment in a line: CEER ErbB heterodimerization assay, HER1:HER3 dimer. Particulars: Lim1215 cells, 24 h, assay range 200-20000.
The test system of experiment [1] is HER3. As to the kind of experiment: CEER phospho HER3 activation level. Particulars: Lim1215 cells, 24 h, assay range 12.8-1500.
The test system of a further experiment is HER1:HER2. The experiment in a line: CEER ErbB heterodimerization assay, HER1:HER2 dimer. Particulars: Lim1215 cells, 24 h, assay range 7.8-1000.
For the next experiment, the system named is HER2:HER3. As to the kind of experiment: CEER ErbB heterodimerization assay, HER2:HER3 dimer. The following applies: Lim1215 cells, 24 h, assay range 50-1500.
In the next experiment the test system is MEK. The experiment in a line: CEER phospho MEK level. Particulars: Lim1215 cells; 24 h; series 2 (FIG. 2; Control 38.0); assay range 1.02-100.
For experiment [2], the system named is HER3. The experiment in a line: CEER total HER3 expression level. Type of experiment: cell-based, human. The following applies: Lim1215 cells, 24 h, assay range 390-25000.
Another experiment has as its system RSK. As to the kind of experiment: CEER phospho RSK level. The following applies: Lim1215 cells, 24 h, assay range 2.56-100. Type of experiment: cell-based, human. The source says: These were complemented by ErbB heterodimerization assays using CEER.
The test system of the next experiment is HER2. The experiment in a line: CEER total HER2 expression level. Particulars: Lim1215 cells, 24 h, assay range 390-25000. Type of experiment: cell-based, human.
A further experiment has as its system HER1. As to the kind of experiment: CEER total HER1 expression level. The following applies: Lim1215 cells, 24 h, assay range 7.8-500.
The subject of the next experiment is ERK. The experiment in a line: CEER phospho ERK level. Particulars: Lim1215 cells, 24 h, assay range 1.02-100.
In a further experiment the test system is AKT. The experiment in a line: CEER phospho AKT level. Particulars: Lim1215 cells, 24 h, assay range 1.02-40.

Regarding trastuzumab, the results for the “ErbB Dimer Formation HER1:HER3 (0.5 ug)” value in the experiment with HER1:HER3 (series 2 (FIG. 2; Control 387)) and in the experiment on HER1:HER3 (series 3 (FIG. 3; control 398)) were 487 and 374, respectively. Moreover, the “Phos HER3 (10 ug)” value in the experiment on HER3 [1] (series 2 (FIG. 2; Control 236)) was 255; with HER3 [1] (series 3 (FIG. 3; control 573)), 754. Besides, the “ErbB Dimer Formation HER1:HER2 (2 ug)” value is given as 42.4 in the experiment on HER1:HER2 (series 2 (FIG. 2; Control 128.5)) and 30.6 with HER1:HER2 (series 3 (FIG. 3; control 46.0)). The “ErbB Dimer Formation HER2:HER3 (2 ug)” value is reported as 261.7 with HER2:HER3 (series 2 (FIG. 2; Control 250.9)) and 290.9 with HER2:HER3 (series 3 (FIG. 3; control 211.8)). In addition, in the experiment on MEK, the “Phos MEK (10 ug)” value came to 19.8 pg/µg. Besides, the “Total HER3 (0.2 ug)” value in the experiment with HER3 [2] (series 2 (FIG. 2; Control 7757)) was found to be 9488; in the experiment with HER3 [2] (series 3 (FIG. 3; control 4282)) it was 3743. The “Phos RSK (10 ug)” value in the experiment on RSK (series 2 (FIG. 2; Control 289 >ULOQ)) was 75.8 pg/µg; with RSK (series 3 (FIG. 3; control […] >ULOQ)), 60.2 pg/µg. The “Total HER2 (0.2 ug)” value in the experiment on HER2 (series 2 (FIG. 2; Control 4212)) is 884; in the experiment with HER2 (series 3 (FIG. 3; control 3025)), 592. For the same substance, the figures for the “Total HER1 (1 ug)” value with HER1 (series 2 (FIG. 2; Control 171.4)) and with HER1 (series 3 (FIG. 3; control 137.2)) were 184.2 and 148.4, respectively. The “Phos ERK (10 ug)” value with ERK (series 2 (FIG. 2; Control […])) amounted to 2.6 pg/µg; in the experiment on ERK (series 3 (FIG. 3; control 5.3)), 3.6 pg/µg. For the same substance, the “Phos AKT (10 ug)” value with AKT (series 2 (FIG. 2; Control 9.6)) came out at 0.79 pg/µg; in the experiment on AKT (series 3 (FIG. 3; control 11.4)) it was 2.6 pg/µg.

The record behind these values is patent US20160025730A1, “METHODS OF SELECTING COMBINATION THERAPY FOR COLORECTAL CANCER PATIENTS” (NESTEC S.A., priority 2013, published 2016).
